Laboratory results reported in ChEMBL document CHEMBL4422610, “HDAC as onco target: Reviewing the synthetic approaches with SAR study of their inhibitors” (Eur J Med Chem, 2018).

By UniProt entry, the sequences of proteins in these tests, tags left out. Where a name states a change or a piece, a line headed by the entry shows the natural chain unless it says otherwise.
UniProt O15379: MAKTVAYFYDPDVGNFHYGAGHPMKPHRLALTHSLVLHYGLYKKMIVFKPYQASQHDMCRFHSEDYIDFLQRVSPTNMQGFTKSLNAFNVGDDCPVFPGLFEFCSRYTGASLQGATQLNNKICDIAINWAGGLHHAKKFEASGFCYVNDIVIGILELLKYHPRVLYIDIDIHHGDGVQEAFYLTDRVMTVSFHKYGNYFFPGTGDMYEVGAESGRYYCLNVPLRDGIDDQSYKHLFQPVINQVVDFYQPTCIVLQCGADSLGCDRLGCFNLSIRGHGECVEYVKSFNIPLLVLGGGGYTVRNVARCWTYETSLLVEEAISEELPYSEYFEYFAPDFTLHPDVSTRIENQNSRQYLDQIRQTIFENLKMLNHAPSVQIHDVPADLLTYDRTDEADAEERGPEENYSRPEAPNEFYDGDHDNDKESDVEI
UniProt Q9UBN7: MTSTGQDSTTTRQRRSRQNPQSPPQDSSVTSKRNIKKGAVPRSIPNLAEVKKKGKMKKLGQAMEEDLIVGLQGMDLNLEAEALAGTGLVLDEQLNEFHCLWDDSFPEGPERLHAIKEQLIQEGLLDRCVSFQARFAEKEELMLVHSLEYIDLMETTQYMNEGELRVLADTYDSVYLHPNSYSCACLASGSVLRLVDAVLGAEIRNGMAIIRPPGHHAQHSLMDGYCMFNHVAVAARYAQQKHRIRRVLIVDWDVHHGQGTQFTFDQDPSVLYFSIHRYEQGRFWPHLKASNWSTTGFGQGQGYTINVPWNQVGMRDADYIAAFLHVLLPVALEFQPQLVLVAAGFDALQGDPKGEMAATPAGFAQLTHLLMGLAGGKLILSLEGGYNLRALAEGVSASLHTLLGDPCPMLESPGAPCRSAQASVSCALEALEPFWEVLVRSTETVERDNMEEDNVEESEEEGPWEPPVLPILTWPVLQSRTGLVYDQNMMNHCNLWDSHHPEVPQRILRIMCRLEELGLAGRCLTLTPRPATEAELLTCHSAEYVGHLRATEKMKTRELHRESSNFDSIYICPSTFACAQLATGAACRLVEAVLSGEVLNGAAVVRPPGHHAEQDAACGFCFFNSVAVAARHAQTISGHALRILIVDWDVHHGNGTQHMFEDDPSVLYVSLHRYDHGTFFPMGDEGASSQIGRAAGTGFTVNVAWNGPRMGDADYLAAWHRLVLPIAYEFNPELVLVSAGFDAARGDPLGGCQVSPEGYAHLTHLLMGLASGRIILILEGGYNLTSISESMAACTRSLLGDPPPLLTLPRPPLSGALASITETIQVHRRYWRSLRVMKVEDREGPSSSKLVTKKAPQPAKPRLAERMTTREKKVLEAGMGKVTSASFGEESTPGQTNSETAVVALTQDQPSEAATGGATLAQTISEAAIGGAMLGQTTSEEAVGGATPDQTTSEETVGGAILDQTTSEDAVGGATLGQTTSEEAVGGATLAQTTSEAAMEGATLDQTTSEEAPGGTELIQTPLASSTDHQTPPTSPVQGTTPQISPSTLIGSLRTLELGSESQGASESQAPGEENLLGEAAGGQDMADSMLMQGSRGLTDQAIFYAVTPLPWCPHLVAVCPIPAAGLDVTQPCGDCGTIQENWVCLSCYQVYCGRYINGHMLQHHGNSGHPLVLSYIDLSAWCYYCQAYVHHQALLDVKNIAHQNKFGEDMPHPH
UniProt Q92769: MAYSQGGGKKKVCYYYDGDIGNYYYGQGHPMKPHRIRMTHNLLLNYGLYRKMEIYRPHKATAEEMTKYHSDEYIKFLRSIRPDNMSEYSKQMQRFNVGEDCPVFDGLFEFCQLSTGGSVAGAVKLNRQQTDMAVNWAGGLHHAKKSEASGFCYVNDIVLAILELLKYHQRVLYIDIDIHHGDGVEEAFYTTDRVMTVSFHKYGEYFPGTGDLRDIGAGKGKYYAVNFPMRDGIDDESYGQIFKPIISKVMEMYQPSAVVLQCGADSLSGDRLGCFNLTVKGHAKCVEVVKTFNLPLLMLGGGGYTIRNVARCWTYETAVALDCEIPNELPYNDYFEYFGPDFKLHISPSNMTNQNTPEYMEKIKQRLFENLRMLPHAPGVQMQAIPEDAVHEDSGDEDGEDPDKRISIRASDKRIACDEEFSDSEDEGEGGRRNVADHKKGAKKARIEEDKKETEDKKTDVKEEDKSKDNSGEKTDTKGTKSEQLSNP
UniProt Q8WUI4: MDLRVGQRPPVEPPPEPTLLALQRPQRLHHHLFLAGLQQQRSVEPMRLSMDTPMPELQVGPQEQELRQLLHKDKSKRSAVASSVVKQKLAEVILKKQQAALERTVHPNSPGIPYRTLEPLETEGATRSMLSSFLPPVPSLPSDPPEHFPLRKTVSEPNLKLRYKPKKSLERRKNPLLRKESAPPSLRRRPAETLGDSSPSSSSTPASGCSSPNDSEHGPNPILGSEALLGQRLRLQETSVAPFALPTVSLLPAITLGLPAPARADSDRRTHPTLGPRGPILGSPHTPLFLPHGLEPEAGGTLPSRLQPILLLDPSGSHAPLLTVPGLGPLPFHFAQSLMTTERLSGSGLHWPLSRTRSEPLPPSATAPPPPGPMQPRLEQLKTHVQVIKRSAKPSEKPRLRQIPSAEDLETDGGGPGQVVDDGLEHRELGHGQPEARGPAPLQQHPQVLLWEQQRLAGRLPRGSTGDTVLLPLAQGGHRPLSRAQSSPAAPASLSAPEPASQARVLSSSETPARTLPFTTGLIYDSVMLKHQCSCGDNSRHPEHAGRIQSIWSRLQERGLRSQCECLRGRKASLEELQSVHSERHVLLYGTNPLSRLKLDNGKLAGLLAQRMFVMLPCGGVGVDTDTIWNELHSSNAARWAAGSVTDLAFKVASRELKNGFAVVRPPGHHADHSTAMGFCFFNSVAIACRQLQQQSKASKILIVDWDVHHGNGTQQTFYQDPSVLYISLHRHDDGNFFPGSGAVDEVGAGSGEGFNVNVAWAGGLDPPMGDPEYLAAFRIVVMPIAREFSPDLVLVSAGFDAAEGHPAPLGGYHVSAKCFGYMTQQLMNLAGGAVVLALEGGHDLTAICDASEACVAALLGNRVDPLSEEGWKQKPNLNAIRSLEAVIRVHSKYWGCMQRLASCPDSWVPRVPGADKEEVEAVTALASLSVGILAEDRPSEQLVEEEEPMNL
UniProt Q9BY41: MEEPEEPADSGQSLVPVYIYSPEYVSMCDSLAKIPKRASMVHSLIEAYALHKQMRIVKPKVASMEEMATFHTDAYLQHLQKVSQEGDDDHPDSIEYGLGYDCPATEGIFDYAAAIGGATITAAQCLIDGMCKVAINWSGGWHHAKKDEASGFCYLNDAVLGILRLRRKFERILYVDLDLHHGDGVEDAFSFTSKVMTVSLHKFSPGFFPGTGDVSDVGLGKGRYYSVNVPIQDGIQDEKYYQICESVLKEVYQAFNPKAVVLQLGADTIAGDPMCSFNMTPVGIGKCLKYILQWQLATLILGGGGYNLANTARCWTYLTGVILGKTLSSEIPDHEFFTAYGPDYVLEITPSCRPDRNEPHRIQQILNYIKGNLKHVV
UniProt Q96DB2: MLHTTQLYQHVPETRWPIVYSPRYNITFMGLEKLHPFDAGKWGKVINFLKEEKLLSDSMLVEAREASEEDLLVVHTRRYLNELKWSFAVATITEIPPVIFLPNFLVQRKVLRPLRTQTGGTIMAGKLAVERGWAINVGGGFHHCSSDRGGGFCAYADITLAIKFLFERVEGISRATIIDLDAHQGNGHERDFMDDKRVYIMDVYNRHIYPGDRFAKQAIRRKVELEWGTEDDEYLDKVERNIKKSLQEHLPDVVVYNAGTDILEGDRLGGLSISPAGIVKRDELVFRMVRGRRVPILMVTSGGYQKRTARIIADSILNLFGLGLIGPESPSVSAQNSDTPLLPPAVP
UniProt P56524: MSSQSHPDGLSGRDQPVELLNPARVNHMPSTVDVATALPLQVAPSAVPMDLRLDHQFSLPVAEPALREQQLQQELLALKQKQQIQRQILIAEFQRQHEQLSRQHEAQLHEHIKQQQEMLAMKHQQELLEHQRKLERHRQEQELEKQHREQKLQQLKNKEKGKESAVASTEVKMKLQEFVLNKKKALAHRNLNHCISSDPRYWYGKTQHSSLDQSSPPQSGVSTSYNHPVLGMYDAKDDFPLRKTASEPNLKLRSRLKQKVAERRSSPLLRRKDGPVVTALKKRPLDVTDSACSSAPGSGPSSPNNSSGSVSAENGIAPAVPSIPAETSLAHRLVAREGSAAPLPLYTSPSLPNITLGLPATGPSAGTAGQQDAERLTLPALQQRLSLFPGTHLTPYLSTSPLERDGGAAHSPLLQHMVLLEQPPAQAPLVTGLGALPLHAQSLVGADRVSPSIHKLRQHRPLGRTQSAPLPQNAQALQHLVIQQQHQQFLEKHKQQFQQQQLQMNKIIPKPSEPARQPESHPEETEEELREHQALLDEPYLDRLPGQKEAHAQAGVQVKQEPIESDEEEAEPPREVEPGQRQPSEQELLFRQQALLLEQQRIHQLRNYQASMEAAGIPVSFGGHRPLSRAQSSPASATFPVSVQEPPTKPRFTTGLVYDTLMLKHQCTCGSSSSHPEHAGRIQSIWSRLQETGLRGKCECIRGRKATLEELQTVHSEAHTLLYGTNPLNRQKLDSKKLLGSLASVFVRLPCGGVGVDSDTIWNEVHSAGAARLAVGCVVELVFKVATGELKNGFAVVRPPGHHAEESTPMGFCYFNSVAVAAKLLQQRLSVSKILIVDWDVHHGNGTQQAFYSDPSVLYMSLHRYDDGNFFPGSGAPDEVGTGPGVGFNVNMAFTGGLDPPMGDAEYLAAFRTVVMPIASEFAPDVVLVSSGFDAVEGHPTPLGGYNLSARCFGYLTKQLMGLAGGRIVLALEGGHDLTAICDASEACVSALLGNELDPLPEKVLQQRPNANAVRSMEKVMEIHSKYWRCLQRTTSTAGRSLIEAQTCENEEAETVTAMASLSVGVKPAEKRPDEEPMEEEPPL
UniProt Q9UKV0: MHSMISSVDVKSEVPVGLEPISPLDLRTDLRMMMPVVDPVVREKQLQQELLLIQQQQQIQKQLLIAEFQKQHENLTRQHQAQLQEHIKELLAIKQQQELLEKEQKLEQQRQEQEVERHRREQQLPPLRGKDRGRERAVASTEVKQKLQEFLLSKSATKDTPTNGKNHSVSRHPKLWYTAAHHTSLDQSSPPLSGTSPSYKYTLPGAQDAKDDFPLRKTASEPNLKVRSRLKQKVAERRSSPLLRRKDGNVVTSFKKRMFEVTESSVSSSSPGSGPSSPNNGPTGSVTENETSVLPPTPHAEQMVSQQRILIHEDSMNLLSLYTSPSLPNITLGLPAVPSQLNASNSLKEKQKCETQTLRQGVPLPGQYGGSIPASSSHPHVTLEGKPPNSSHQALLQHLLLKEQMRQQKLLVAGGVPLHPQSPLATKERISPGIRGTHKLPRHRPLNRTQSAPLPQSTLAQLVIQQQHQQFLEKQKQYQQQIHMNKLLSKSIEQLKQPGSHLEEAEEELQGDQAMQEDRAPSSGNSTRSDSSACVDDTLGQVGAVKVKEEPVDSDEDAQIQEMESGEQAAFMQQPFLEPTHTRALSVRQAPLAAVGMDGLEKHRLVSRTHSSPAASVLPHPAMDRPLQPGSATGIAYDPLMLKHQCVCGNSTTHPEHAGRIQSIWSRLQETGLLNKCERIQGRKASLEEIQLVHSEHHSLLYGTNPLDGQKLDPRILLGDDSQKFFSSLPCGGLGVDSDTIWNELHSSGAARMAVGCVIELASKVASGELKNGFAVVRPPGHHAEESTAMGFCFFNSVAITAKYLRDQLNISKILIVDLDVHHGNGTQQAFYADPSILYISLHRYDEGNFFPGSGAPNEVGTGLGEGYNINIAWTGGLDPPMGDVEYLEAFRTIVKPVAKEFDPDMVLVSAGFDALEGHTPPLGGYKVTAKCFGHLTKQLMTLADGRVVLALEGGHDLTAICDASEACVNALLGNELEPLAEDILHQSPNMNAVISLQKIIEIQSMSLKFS
UniProt Q969S8: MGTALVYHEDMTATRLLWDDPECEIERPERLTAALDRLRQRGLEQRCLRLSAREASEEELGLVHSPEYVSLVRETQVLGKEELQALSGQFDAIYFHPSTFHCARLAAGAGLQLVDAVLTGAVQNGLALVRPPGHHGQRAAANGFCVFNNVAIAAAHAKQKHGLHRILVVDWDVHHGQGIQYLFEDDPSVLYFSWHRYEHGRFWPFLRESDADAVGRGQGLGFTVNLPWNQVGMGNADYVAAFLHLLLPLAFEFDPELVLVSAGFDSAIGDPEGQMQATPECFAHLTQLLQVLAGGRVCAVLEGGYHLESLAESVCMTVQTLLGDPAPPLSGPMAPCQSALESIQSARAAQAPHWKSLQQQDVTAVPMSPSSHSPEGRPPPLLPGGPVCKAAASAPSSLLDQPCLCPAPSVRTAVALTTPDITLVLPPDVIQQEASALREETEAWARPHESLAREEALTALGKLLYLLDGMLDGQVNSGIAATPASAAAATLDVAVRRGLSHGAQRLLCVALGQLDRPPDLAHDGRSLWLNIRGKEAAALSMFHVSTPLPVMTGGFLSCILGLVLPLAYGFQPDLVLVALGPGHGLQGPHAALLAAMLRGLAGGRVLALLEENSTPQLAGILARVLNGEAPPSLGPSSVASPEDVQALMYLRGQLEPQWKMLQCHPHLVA

Target: Histone deacetylase (Homo sapiens) (UniProt Q13547+O15379+Q9UBN7+Q92769+Q9UQL6+Q8WUI4+Q9BY41+Q96DB2+P56524+Q9UKV0+Q969S8)
Experiment: Potency index, ratio of SAHA effect to test compound effect for inhibition of HDAC in human HeLa nuclear extract
Type: cell-based

Row | Ratio | Structure (SMILES)
1 | 4 | O=C(CCCCCCn1cc(-c2ccccc2)nn1)NO
2 | 2 | COc1ccc(-c2cn(CCCCCCC(=O)NO)nn2)cc1
